We go through four molecules from US20120244566A1.

Sequences of proteins named here, by UniProt entry; tags and fusion partners are left off. Residues count along the entry.
UniProt O15530, whole entry: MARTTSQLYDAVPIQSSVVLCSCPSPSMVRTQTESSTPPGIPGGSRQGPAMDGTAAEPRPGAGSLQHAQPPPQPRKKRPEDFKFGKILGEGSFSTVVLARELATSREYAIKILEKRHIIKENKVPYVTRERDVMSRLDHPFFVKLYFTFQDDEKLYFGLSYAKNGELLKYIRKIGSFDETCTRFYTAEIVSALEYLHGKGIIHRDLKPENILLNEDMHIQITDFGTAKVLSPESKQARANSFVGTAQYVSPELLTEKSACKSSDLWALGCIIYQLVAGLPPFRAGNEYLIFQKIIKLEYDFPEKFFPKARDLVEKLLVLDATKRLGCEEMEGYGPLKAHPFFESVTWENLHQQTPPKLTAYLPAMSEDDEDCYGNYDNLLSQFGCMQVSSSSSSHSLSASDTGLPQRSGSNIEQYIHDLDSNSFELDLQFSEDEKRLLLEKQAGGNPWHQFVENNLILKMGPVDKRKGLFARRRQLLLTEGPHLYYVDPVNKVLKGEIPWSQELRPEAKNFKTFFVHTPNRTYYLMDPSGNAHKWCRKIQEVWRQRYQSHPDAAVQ
UniProt O15530, 51-359 limits assumed: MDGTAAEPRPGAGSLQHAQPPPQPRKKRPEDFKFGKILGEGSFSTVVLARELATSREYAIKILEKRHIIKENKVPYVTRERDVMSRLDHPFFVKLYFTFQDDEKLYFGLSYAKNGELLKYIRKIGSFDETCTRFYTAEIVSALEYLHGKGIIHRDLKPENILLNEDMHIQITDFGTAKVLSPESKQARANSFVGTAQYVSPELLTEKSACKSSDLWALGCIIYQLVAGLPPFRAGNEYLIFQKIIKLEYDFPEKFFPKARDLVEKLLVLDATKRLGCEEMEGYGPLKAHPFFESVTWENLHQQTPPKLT

Read-outs that look alike come from different tables or passages of the source.

One experiment deals with full-length PDK1 (Homo sapiens, UniProt O15530). In words: Caliper mobility shift assay, PDK1 inhibition, with TDA 2.0. The protocol: (§1) Enzyme inhibition—Inhibition studies were conducted using two assay formats, Omnia and Caliper. For the Omnia assay, K1^app studies were conducted in the presence of 20 nM catalytic domain of PDK1, 50 μM ATP and 3 μM PDK1-Onmia-peptide in a 50 mM Hepes, 5 mM MgCl2, 0.01% Brij-35, 1 mM DTT assay buffer at pH 7.4. The increase of fluorescence (λex=360 nm and λem=485 nm) was recorded continuously using a Safire TECAN plate reader. For the Caliper assay, the Ki^app constant for full-length PDK1 alone was determined in the presence of 25 nM enzyme. […] Both sets of Caliper inhibition study were conducted with 2.5 μM TDA 2.0™, 1 mM ATP and 5 μM peptide in 50 mM Tris buffer, 10 mM MgCl2, 0.01% Tween-20 pH 7.4 with 5% DMSO. The enzyme, the peptide and various amounts of inhibitor were preincubated for 15 min, prior addition of ATP to the reaction media.
(§2) Ki^app and Ki were calculated by fitting the experimental data to the following equations (J. F. Morrison Kinetics of the reversible inhibition of enzyme catalysed reactions by tight-binding inhibitors. Biochim. Biophys. Acta 185, (1969), 269-286):
(§3) [E]o and [I]o are the total active enzyme and inhibitor concentrations, respectively; Ki is the inhibition binding constant; Vi and Vo are the rates of peptide phosphorylation in the presence or in the absence of inhibitor, respectively; [A]o is the total ATP concentration.
The effect of liposomes on the PDK1 activity was also evaluated in the presence of PDK1 inhibitors from the carbonyl-4-amino-pyrrolopyrimidine series. A comparative study was conducted in two different assay formats, Omnia kinetic assay and Caliper mobility shift assay. The Ki values obtained using the Omnia assay were determined without TDA 2.0™ as opposed to the values determined using the Caliper assay. […] One selective PDK1 inhibitor from the carbonyl-4-amino-pyrrolopyrimidine series, PF-5168899, was also evaluated to prevent the activation of AKT using a cascade biochemical assay. […] This inhibitor was used as a tool to evaluate the inhibition of PDK1 upon downstream biomarkers such as the activation of AKT. […] Under these circumstances, selective inhibition of PDK1 could only have a limited effect upon the rest of AKT pathway.

The target in experiment [1] is T1, catalytic domain of PDK1 (Homo sapiens, UniProt O15530). As to conditions: read-out: Ki (nM, Omnia); Omnia format; data from Murphy S et al (footnote a); cited from earlier work.
Experiment [2] deals with T1, catalytic domain of PDK1. Briefly: Omnia kinetic assay, PDK1 inhibition, without TDA 2.0. As to conditions: read-out: Ki (nM, Omnia), 20 nM catalytic domain of PDK1, 50 μM ATP, Ki app converted into Ki. How it is done:
Enzyme inhibition—Inhibition studies were conducted using two assay formats, Omnia and Caliper. For the Omnia assay, K1^app studies were conducted in the presence of 20 nM catalytic domain of PDK1, 50 μM ATP and 3 μM PDK1-Onmia-peptide in a 50 mM Hepes, 5 mM MgCl2, 0.01% Brij-35, 1 mM DTT assay buffer at pH 7.4. The increase of fluorescence (λex=360 nm and λem=485 nm) was recorded continuously using a Safire TECAN plate reader. For the Caliper assay, the Ki^app constant for full-length PDK1 alone was determined in the presence of 25 nM enzyme. […]
Ki^app and Ki were calculated by fitting the experimental data to the following equations (J. F. Morrison Kinetics of the reversible inhibition of enzyme catalysed reactions by tight-binding inhibitors. Biochim. Biophys. Acta 185, (1969), 269-286): […]
The effect of liposomes on the PDK1 activity was also evaluated in the presence of PDK1 inhibitors from the carbonyl-4-amino-pyrrolopyrimidine series. […] The Ki values obtained using the Omnia assay were determined without TDA 2.0™ as opposed to the values determined using the Caliper assay. […] One selective PDK1 inhibitor from the carbonyl-4-amino-pyrrolopyrimidine series, PF-5168899, was also evaluated to prevent the activation of AKT using a cascade biochemical assay. […]

The subject of another experiment is AKT1. In words: Caliper cascade assay: activation of inactive AKT1 by PDK1 and mTOR with TDA 2.0. The protocol:
AKT activation in the presence of mTOR and PDK1—Activation of AKT1 and AKT2 were conducted in Tris buffer with 2% DMSO. The reaction was conducted with 25 nM unactivated AKT(1 and 2), 25 nM mTOR, 2.5 nM PDK1, and 2.5 μM TDA 2.0™. The reaction was initiated with 5 μM AKT substrate (SFAM-GRPRTSSFAEG-CONH2) and 1 mM ATP and the rate of substrate conversion was measured on a LabChip EZ-Reader. The instrument was set up to collect aliquots from the assay mixture at regular intervals. The upstream, downstream voltages and the pressure were set to −2800 V, −380 V, and 0.8 psi, respectively.
as §1, §2, §3

The mark [3] stands for this setting: read-out: Ki (nM, Caliper), 25 nM full-length PDK1, 2.5 μM TDA 2.0, 1 mM ATP, Ki app converted into Ki.

Turning to `CC(C)n1cc(C(=O)c2cncc(N[C@@H]3CCO[C@@H]3c3ccc(F)cc3)n2)c2c(N)ncnc21`, the Ki was 1.8 nM on full-length PDK1 (setting [3]) and 1.25 nM at catalytic domain of PDK1 [1].

In the case of `CC(C)n1cc(C(=O)c2cncc(N[C@@H]3CCC[C@@H]3n3cccn3)n2)c2c(N)ncnc21`, the Ki on full-length PDK1 (setting [3]) was 0.6 nM; on catalytic domain of PDK1 [2], 0.2 nM.

Take `CC(C)n1cc(C(=O)c2cncc(NC3CCCC3c3ccccc3)n2)c2c(N)ncnc21` (racemic): the Ki was 10.6 nM at full-length PDK1 (setting [3]) and 2.3 nM on catalytic domain of PDK1 [2].

For the molecule `CC(=O)N1CC[C@@H](Nc2cncc(C(=O)c3cn(C(C)C)c4ncnc(N)c34)n2)[C@H]1c1ccccc1`, at full-length PDK1 (full-length PDK1, TDA 2.0, high ATP (1 mM)), the “Ki app for PDK1” value was “nM range”. Moreover, the “Ki value for PDK1” value at full-length PDK1 (in the presence and in the absence of lipid vesicles) is “nM range”. In addition, the Ki at full-length PDK1 (setting [3]) is 0.3 nM; on full-length PDK1 (read-out: Ki app for PDK1, full-length PDK1, TDA 2.0, high ATP (1 mM)), 31.5 nM; on full-length PDK1 (read-out: Ki for PDK1, full-length PDK1, TDA 2.0, 1 mM ATP) it was 0.31 nM; at catalytic domain of PDK1 [1], 2.5 nM; in the experiment with AKT1 (read-out: Ki app for preventing activation of AKT1 in cascade assay, 25 nM inactive AKT1, 25 nM mTOR, 2.5 nM full-length PDK1, 2.5 μM TDA 2.0, 1 mM ATP), 1530 nM. Moreover, the “Ki app for preventing activation of AKT1 in cascade assay” value in the experiment on AKT1 (25 nM inactive AKT1, 25 nM mTOR, 2.5 nM full-length PDK1, 2.5 μM TDA 2.0, 1 mM ATP) is listed as “μM range”. The “fold increase of Ki app, AKT1 cascade compared to PDK1” value with AKT1 (AKT1 cascade Ki app versus PDK1 Ki app) amounted to 70 fold.
